Literature values as cited in US8394607B2, “Anti-CD22 antibodies and immunoconjugates and methods of use” (Genentech, Inc., priority 2006, dated 2013).

Settings: human, in vivo; cited from earlier work

B1: ZEVALIN (conjugate, chains of the INN, looked up)
heavy: QAYLQQSGAELVRPGASVKMSCKASGYTFTSYNMHWVKQTPRQGLEWIGAIYPGNGDTSYNQKFKGKATLTVDKSSSTAYMQLSSLTSEDSAVYFCARVVYYSNSYWYFDVWGTGTTVTVSAPSVYPLAPVCGDTTGSSVTLGCLVKGYFPEPVTLTWNSGSLSSGVHTFPAVLQSDLYTLSSSVTVTSSTWPSQSITCNVAHPASSTKVDKKIEPRGPTIKPCPPCKCPAPNLLGGPSVFIFPPKIKDVLMISLSPIVTCVVVDVSEDDPDVQISWFVNNVEVHTAQTQTHREDYNSTLRVVSALPIQHQDWMSGKEFKCKVNNKDLPAPIERTISKPKGSVRAPQVYVLPPPEEEMTKKQVTLTCMVTDFMPEDIYVEWTNNGKTELNYKNTEPVLDSDGSYFMYSKLRVEKKNWVERNSYSCSVVHEGLHNHHTTKSFSR
light: QIVLSQSPAILSASPGEKVTMTCRASSSVSYMHWYQQKPGSSPKPWIYAPSNLASGVPARFSGSGSGTSYSLTISRVEAEDAATYYCQQWSFNPPTFGAGTKLELKRADAAPTVFIFPPSDEQLKSGTASVVCLLNNFYPREAKVQWKVDNALQSGNSQESVTEQDSKDSTYSLSSTLTLSKADYEKHKVYACEVTHQGLSSPVTKSFN
modifications: 90Y tiuxetan chelate
adverse effect of administration: severe and prolonged cytopenias in most patients
